Values of other authors in patent US20090069418A1, “Compositions and Methods for the Treatment of Disorders Associated with Aberrant Vasodilation” (priority 2007, published 2009).

Sequences of proteins named here, by UniProt entry; tags and fusion partners are left off.
UniProt P34913, whole entry, species assumed: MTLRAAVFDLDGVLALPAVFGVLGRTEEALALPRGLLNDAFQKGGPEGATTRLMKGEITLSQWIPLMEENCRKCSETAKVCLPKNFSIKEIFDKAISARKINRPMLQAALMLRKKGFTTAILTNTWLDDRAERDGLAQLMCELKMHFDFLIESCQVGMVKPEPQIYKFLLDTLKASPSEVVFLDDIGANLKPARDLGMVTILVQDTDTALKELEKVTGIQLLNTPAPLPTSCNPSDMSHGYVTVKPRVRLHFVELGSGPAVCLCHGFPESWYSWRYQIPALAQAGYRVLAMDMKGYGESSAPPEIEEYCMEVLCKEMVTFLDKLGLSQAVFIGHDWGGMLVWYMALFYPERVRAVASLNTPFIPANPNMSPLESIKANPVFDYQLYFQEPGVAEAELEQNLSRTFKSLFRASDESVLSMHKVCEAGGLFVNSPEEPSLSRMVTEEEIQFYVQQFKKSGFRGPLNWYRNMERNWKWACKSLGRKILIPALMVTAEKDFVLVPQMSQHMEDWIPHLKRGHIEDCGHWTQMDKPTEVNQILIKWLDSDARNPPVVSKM

Target: sEH (Homo sapiens, UniProt P34913)
Details: previously shown (Kim et al. 2007; Morisseau et al. 2002); cited from earlier work

Question: For `CCCCOC(=O)CCCCCCCCCCCNC(=O)NC12CC3CC(CC(C3)C1)C2` [AUDA-BE, 12-(3-adamantane-1-yl-ureido)-dodecanoic acid butyl ester], which IC50 is on record?
Answer: The IC50 was “low nanomolar range”.
